Read-outs that look alike come from different tables or passages of the source.
Tests used:
human μ opiate receptor = human μ opiate receptor (Homo sapiens, UniProt P35372); assay: μ opiate receptor binding assay with [3H]-naloxone, membrane preparation of CHO-K1 cells (WGA-SPA beads); conditions: for MOP % Inhibition @1 μM / % inhibition (μ) [1 μM]: test concentration 1 μM
ORL1 receptor = ORL1 receptor (Homo sapiens, UniProt P41146); conditions: for ORL1 % Inhibition @ 1 μM / % inhibition (ORL1) [1 μM]: test concentration 1 μM
[1] = read-out: Ki (μ) mean [μm], mean
[2] = read-out: Ki (ORL1) mean [μm], mean

The chains behind the UniProt entries cited, without tags or fusion partners. Where a name states a change or a piece, a line headed by the entry shows the natural chain unless it says otherwise.
UniProt P35372, whole entry, looked up: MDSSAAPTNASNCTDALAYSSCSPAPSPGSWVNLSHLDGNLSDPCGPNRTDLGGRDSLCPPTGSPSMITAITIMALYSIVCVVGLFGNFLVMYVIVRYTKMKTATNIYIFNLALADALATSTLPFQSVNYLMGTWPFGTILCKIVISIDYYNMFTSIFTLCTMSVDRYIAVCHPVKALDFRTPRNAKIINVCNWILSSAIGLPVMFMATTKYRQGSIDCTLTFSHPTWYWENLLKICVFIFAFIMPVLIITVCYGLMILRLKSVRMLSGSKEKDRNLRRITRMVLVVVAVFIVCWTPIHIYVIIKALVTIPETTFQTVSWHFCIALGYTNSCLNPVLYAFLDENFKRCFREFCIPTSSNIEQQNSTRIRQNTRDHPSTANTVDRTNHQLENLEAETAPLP
UniProt P41146: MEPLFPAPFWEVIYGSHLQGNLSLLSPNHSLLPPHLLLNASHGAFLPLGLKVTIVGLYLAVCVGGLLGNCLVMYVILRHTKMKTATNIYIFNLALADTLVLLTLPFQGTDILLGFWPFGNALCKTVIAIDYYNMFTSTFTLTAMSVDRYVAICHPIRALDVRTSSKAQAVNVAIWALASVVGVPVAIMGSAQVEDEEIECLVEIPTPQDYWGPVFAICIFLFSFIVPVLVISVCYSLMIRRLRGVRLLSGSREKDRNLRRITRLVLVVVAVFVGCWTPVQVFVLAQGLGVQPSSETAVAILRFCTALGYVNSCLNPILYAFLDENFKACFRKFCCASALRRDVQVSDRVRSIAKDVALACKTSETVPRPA

Row | Compound | MOP % Inhibition @1 μM (human μ opiate receptor) | ORL1 % Inhibition @ 1 μM (ORL1 receptor) | Ki (human μ opiate receptor; read-out: MOP Ki) | Ki (ORL1 receptor; read-out: ORL1 Ki) | Ki (human μ opiate receptor; [1]) | % inhibition (μ) [1 μM] (human μ opiate receptor) | Ki (ORL1 receptor; [2]) | % inhibition (ORL1) [1 μM] (ORL1 receptor)
1 | trans-3-(8-Dimethylamino-3-oxo-8-pyridin-2-yl-2-azaspiro[4.5]decan-2-yl)-2,2-dimethyl-propionamide 2,2,2-trifluoro acetate | 2% | −2% | – | – | – | – | – | –
2 | CN(C)[C@]1(c2ccccc2)CC[C@]2(CC1)CC(=O)N(CCC(C)(C)C(=O)NCc1ccccc1)C2 | 94% | 95% | 10.8 nM | 4.9 nM | – | – | – | –
3 | CN(C)[C@]1(c2ccccc2)CC[C@]2(CC1)CC(=O)N(CCC(N)=O)C2 | – | – | 180 nM | 215 nM | – | – | – | –
4 | CN(C)[C@]1(c2ccccc2)CC[C@]2(CC1)CC(=O)N(CCCNC(=O)c1cncnc1)C2 | 35% | 51% | 102 nM | 205 nM | – | – | – | –
5 | CN(C)C1(c2ccccc2)CCC2(CCN(C(=O)c3ccccc3)C2)CC1 (stereo not drawn) | – | – | – | – | 39 nM | 88% | 53.5 nM | 66%
6 | CN(C)C1(CC2CCCC2)CCC2(CCN(C(=O)c3ccccc3)C2)CC1 (stereo not drawn) | – | – | – | – | 17 nM | 99.5% | 130 nM | 64%
7 | CN(C)C1(c2ccccc2)CCC2(CC1)CC(=O)N(CC(=O)NCC1CCS(=O)(=O)CC1)C2 (stereo not drawn) | 61% | 15% | – | – | – | – | – | –
8 | CCNC(=O)N1CCC2(CCC(Cc3ccccc3)(N(C)C)CC2)C1 (stereo not drawn) | – | – | – | – | 51 nM | 76.5% | 440 nM | 34.5%
9 | CN(C)C1(CC2CCCC2)CCC2(CCN(Cc3ccccc3)C2)CC1 (stereo not drawn) | – | – | – | – | 5.5 nM | 99.5% | 22 nM | 83%
10 | COCCNC(=O)C(C)(C)CN1CC2(CCC(c3ccccc3)(N(C)C)CC2)CC1=O (stereo not drawn) | 68% | 73% | 87.5 nM | 79.5 nM | – | – | – | –
11 | CN(C)[C@]1(c2ccccc2)CC[C@]2(CC1)CC(=O)N(CC(C)(C)C(=O)O)C2 | 66% | 36% | 430 nM | 440 nM | – | – | – | –
12 | Cc1ccc(N2C[C@]3(CC[C@@](c4ccccc4)(N(C)C)CC3)CC2=O)c(C#N)c1 | 99% | 94% | 2.4 nM | 4.9 nM | – | – | – | –
13 | COc1cccc(CCC(=O)N2CCC3(CCC(c4ccccc4)(N(C)C)CC3)C2)c1 (stereo not drawn) | 102% | 82% | 5.1 nM | 28 nM | – | – | – | –
14 | CN(C)C1(c2ccccn2)CCC2(CC1)CC(=O)N(CCC(=O)OC(C)(C)C)C2 (stereo not drawn) | 97% | 43% | 43.5 nM | 250 nM | – | – | – | –
15 | COC(=O)CCN1CC2(CCC(c3ccccn3)(N(C)C)CC2)CC1=O (stereo not drawn) | 76% | 28% | 210 nM | 490 nM | – | – | – | –
16 | Cc1nccc(NC(=O)C(C)(C)CCN2C[C@]3(CC[C@@](c4ccccc4)(N(C)C)CC3)CC2=O)n1 | 101% | 75% | 13 nM | 33.5 nM | – | – | – | –
17 | CN(C)[C@]1(c2ccccc2)CC[C@]2(CC1)CC(=O)N(CC(N)=O)C2 | – | 56% | 265 nM | 165 nM | – | – | – | –
18 | CN(C)[C@]1(c2ccccc2)CC[C@]2(CC1)CC(=O)N(CC(C)(C)C(=O)N1CCN(S(C)(=O)=O)CC1)C2 | 83% | 53% | 115 nM | 190 nM | – | – | – | –
19 | CN(C)C1(C(=O)c2ccccc2)CCC2(CCN(Cc3ccccc3)C2)CC1 (single isomer, unassigned) | – | – | – | – | – | 61.5% | 460 nM | 16.5%
20 | CN(C)C1(Cc2ccccc2)CCC2(CCN(Cc3ccncc3)C2)CC1 (stereo not drawn) | – | – | – | – | 52 nM | 67.5% | 310 nM | 32%
21 | CN(C)[C@]1(c2ccccc2)CC[C@]2(CC1)CC(=O)N(CC(=O)NCC1CC1)C2 | 101% | 95% | 1.2 nM | 2 nM | – | – | – | –
22 | CNC(=O)C(C)(C)CN1C[C@]2(CC[C@@](c3ccccc3)(N(C)C)CC2)CC1=O | 85% | 51% | 160 nM | 145 nM | – | – | – | –
23 | CN(C)[C@]1(c2ccccc2)CC[C@]2(CC1)CC(=O)N(CCC(C)(C)C(=O)Nc1cnc(C(F)(F)F)nc1)C2 | 101% | 87% | 7.7 nM | 64.5 nM | – | – | – | –
24 | CN(C)[C@]1(c2ccccc2)CC[C@]2(CC1)CC(=O)N(c1ccccc1)C2 | 98% | 88% | 4.2 nM | 9.2 nM | – | – | – | –
25 | CN(C)[C@]1(c2ccccc2)CC[C@]2(CC1)CC(=O)N(c1cccc3nsnc13)C2 | – | – | 6.2 nM | 2.1 nM | – | – | – | –
26 | cis-4-[2-(8-Dimethylamino-3-oxo-8-phenyl-2-azaspiro[4.5]decan-2-yl)-ethyl]-1,1-dioxo-thiane-4-carboxylic acid 2,2,2-trifluoro acetate | 88% | 8% | 125 nM | – | – | – | – | –

Row | Compound | MOP % Inhibition @1 μM (human μ opiate receptor) | ORL1 % Inhibition @ 1 μM (ORL1 receptor) | Ki (human μ opiate receptor; read-out: MOP Ki) | Ki (ORL1 receptor; read-out: ORL1 Ki) | Ki (human μ opiate receptor; [1]) | % inhibition (μ) [1 μM] (human μ opiate receptor) | Ki (ORL1 receptor; [2]) | % inhibition (ORL1) [1 μM] (ORL1 receptor)
27 | COC(=O)C(C)(C)CN1C[C@]2(CC[C@@](c3ccccn3)(N(C)C)CC2)CC1=O | 100% | 84% | 9.8 nM | 23 nM | – | – | – | –
28 | Trans-8-Dimethylamino-2,8-diphenyl-2-azaspiro[4.5]decan-3-one | 40% | 34% | 2280 nM | 250 nM | – | – | – | –
29 | CN(C)C1(c2cccs2)CCC2(CCN(Cc3ccc(F)s3)C2)CC1 (stereo not drawn) | – | – | – | – | 1.03 nM | 100% | 0.65 nM | 97.5%
30 | CN(C)[C@]1(c2ccccc2)CC[C@]2(CC1)CC(=O)N(CCC(C)(C)C(=O)NCCC#N)C2 | 95% | 67% | 34 nM | 118 nM | – | – | – | –
31 | COCCNC(=O)C(C)(C)CCN1C[C@]2(CC[C@@](c3ccccc3)(N(C)C)CC2)CC1=O | 94% | 59% | 70.5 nM | 240 nM | – | – | – | –
32 | CN(C)C1(c2ccccc2)CCC2(CC1)CC(=O)N(CCC(C)(C)C(=O)NCC(C)(C)O)C2 (stereo not drawn) | 90% | 58% | 78.5 nM | 47 nM | – | – | – | –
33 | CNC(=O)CCCN1CC2(CCC(c3ccccc3)(N(C)C)CC2)CC1=O (stereo not drawn) | 87% | 71% | 96.5 nM | 82 nM | – | – | – | –
34 | CCCCC1(N(C)C)CCC2(CC1)CC(=O)N(Cc1ccccc1)C2 (stereo not drawn) | – | – | – | – | – | 23% | 1490 nM | 6.5%
35 | CN[C@]1(c2ccccc2)CC[C@]2(CC1)CC(=O)N(CC(C)(C)C(N)=O)C2 | 53% | 25% | 755 nM | 525 nM | – | – | – | –
36 | Cc1cc(C(=O)NCCCN2C[C@]3(CC[C@@](c4ccccc4)(N(C)C)CC3)CC2=O)on1 | 88% | 55% | 58 nM | 275 nM | – | – | – | –
37 | CN(C)C1(c2cnccn2)CCC2(CC1)CC(=O)N(CC(C)(C)C(N)=O)C2 (stereo not drawn) | 59% | 10% | 975 nM | 750 nM | – | – | – | –
38 | CC(=O)NCC(=O)N1CCC2(CCC(c3ccccc3)(N(C)C)CC2)C1 (stereo not drawn) | 96% | 84% | 14.5 nM | 21 nM | – | – | – | –
39 | CN(C)[C@]1(c2ccccc2)CC[C@]2(CC1)CC(=O)N(CCC(=O)NCc1ccccc1)C2 | 99% | 78% | 8.4 nM | 93 nM | – | – | – | –
40 | CNC(=O)C(C)(C)N(C)C(=O)CN1CC2(CCC(c3ccccc3)(N(C)C)CC2)CC1=O (stereo not drawn) | 80% | 34% | 145 nM | 535 nM | – | – | – | –
41 | CNC(=O)CNC(=O)CN1C[C@]2(CC[C@@](c3ccccc3)(N(C)C)CC2)CC1=O | 80% | 45% | 265 nM | 245 nM | – | – | – | –
42 | CN(C)[C@]1(c2ccccc2)CC[C@]2(CC1)CC(=O)N(c1ccc(Cl)cc1C#N)C2 | – | – | 1.3 nM | 1.9 nM | – | – | – | –
43 | CN(C)C1(c2ccccc2)CCC2(CCN(C(=O)CCCc3cccnc3)C2)CC1 (stereo not drawn) | 99% | 81% | 11.9 nM | 23 nM | – | – | – | –
44 | CNC(=O)CN(C)C(=O)CN1C[C@]2(CC[C@@](c3ccccc3)(N(C)C)CC2)CC1=O | 83% | 75% | 86.5 nM | 73 nM | – | – | – | –
45 | Cis-2-[8-Dimethylamino-8-(3-methoxy-propyl)-3-oxo-2-azaspiro[4.5]decan-2-yl]-acetamide | 17% | 1% | – | – | – | – | – | –
46 | CN(C)[C@]1(c2ccccc2)CC[C@]2(CC1)CC(=O)N(CC(=O)NCc1cncnc1)C2 | 91% | 45% | 86.5 nM | 240 nM | – | – | – | –
47 | Cc1ccc(C2(N(C)C)CCC3(CC2)CC(=O)N(Cc2ccncc2)C3)s1 (stereo not drawn) | – | – | – | – | 9.05 nM | 91.5% | 118 nM | 50%
48 | CN(C)C1(CC2CCCCC2)CCC2(CCN(Cc3ccccc3)C2)CC1 (stereo not drawn) | – | – | – | – | 1.9 nM | 101.5% | 99 nM | 69.5%
49 | CN(C)[C@]1(c2ccccc2)CC[C@]2(CC1)CC(=O)N(CC(=O)Nc1cccnc1)C2 | 95% | 38% | 50 nM | 250 nM | – | – | – | –
50 | CN(C)[C@]1(c2ccccc2)CC[C@]2(CC1)CC(=O)N(CCC(=O)NCCCC#N)C2 | 89% | 43% | 56.5 nM | 465 nM | – | – | – | –
51 | CN(C)[C@]1(c2ccccc2)CC[C@@]2(CC1)CC(=O)N(c1ccc(F)cn1)C2 | – | – | 89 nM | 117 nM | – | – | – | –
